These results are taken from PubChem BioAssay AID504842 (National Center for Advancing Translational Sciences (NCATS), 2011).

What follows is the remainder of the data, with few or none of the hits. Active and inactive are the calls of the source. The call rests on the fitted dose curve; in most records, active means well fitted inhibition curve with a large enough effect; inconclusive means small, poorly fitted or top-dose-only effect; inactive means flat fitted curve, though single readings scatter.
On the % scale 0 is the no-effect control and ±100 the full control effect.

The test system of the experiment is Chaperonin Mm-Cpn (Methanococcus maripaludis). Nature of the experiment: Inhibitors of TCP-1 ring complex (TRiC) of Methanococcus maripaludis (MmCpn): qHTS. Further: nearly all actives have a fitted effect of over 80% in size. The following applies: purified Mm-Cpn ATPase, ADP Transcreener TR-FRET; at 76.9 µM (top of the series). From the text:
The eukaryotic chaperonin TRiC (for TCP-1 ring complex) is an essential and conserved chaperone required for the folding and activation of 10-15% of the proteins encoded by the human genome. […] The TRiC complex consist of two stacked 7-9 membered rings, each containing a central cavity. Substrates are folded within the cavity in an ATP-dependent manner. TRiC is a complex of eight different, essential proteins. As each of the genes encoding the eight subunits is essential for cell viability and no protocol has been developed to over-express this enzyme to high levels. […] This assay applied the time resolved fluorescence resonance energy transfer (TR-FRET) principle. […]
Purified Mm-CPN was supplied by the laboratory of Dr. Judith Frydman. […] Plates were read on the PerkinElmer EnVision plate reader using Excitation = 320 nm and Emission = […], 665 nm. Protocol- 1.Dispense 1.5ul per well of working [Mm-CPN] = 50nM (or 75 ng / well) 2.Spin plate at 1000 rpm for 30 seconds 3.23nl of compound transferred per well 4.Incubate at 37degC for 10 minutes 5.Dispense 1.5ul per well of working [ATP] = 20uM 6.Incubate at 37degC for 30 minutes 7.Dispense 3ul per well of Anti-ADP Cryptate / ADP-d2 mix (prepared as instructed by Cisbio) 8.Incubate at ambient for 30 minutes 9.Read using EnVision
Take `CC(CCC(C)C(C)(C)C)[C@@H]1CC[C@H]2C3C[C@H](OS(O)(=S)=S)[C@H]4C[C@H](OS(O)(=S)=S)[C@@H](OS(O)(=S)=S)C[C@]4(C)[C@H]3CC[C@]12C` (stereo partly specified) (tested in a mixture with another compound): the activity, negative = inhibition is inactive: -14.3%.
